Results as given in paper PMC12574689, “Synthesis of novel SRPK1-targeting hybrid compounds incorporating antimetabolites for cancer therapy” (RSC Medicinal Chemistry, 2025).

Sequences of proteins named here, by UniProt entry; tags and fusion partners are left off.
UniProt P78362, whole entry: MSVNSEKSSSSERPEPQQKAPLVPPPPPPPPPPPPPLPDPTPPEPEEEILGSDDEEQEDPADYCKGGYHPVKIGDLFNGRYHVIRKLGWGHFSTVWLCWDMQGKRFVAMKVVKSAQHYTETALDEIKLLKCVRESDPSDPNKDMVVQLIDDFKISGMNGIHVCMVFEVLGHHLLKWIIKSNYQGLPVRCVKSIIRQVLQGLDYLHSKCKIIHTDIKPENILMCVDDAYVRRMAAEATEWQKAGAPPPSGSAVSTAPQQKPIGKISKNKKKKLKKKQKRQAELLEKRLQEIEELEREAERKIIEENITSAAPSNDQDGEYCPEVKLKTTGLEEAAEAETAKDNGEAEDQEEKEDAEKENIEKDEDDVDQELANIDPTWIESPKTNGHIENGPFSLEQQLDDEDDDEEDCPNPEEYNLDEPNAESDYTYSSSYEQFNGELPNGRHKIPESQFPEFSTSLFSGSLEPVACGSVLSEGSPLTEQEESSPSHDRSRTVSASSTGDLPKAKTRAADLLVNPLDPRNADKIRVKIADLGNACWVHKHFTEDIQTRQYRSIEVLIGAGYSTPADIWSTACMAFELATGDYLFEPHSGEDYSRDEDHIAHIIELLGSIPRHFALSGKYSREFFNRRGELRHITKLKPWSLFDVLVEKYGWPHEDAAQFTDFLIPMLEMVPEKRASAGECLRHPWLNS

Experiments:
[1] = tested on: HeLa; assay: MTT viability assay, HeLa; conditions: 48 h treatment, mean of three independent experiments
[2] = tested on: K562; assay: MTT viability assay, K562; conditions: 48 h treatment, mean of three independent experiments
[3] = tested on: A549; assay: MTT viability assay, A549; conditions: 48 h treatment, mean of three independent experiments
[4] = tested on: HepG2; assay: MTT viability assay, HepG2; conditions: 48 h treatment, mean of three independent experiments
[5] = tested on: HT-29; assay: MTT viability assay, HT-29; conditions: HT-29, MTT, 48 h treatment, mean of three independent experiments
[6] = tested on: Caco2; assay: MTT viability assay, Caco2; conditions: 48 h treatment, mean of three independent experiments
[7] = tested on: primary intestinal subepithelial myofibroblasts (SEMFs); assay: MTT viability assay, primary SEMFs; conditions: 48 h treatment, mean of three independent experiments
[8] = biological target: GST-SRPK2 (Homo sapiens, UniProt P78362); assay: In vitro kinase assay, GST-SRPK2; conditions: read-out: GST-SRPK2 (IC50); substrate GST-LBRNt(62–92), 25 μM ATP
[9] = tested on: SRPK1 in HeLa cells; assay: Immunofluorescence of SRPK1 subcellular localization

- EC50 [1]: 8.6 µM
- EC50 [2]: 13.2 µM
- EC50 [3]: > 50 µM
- EC50 [4]: 16.7 µM
- EC50 [5]: 1.4 µM
- EC50 [6]: 14.8 µM
- IC50 [8]: 4.1 µM
Compound: CCc1cc2c(cc1-c1cc[nH]n1)C(C)(C)c1[nH]c3cc(C#N)ccc3c1C2=O
- EC50 [7]: 12.8 µM
- effect on SRPK1 subcellular localization ([9]; 20 μM, 24 h): did not affect the cytoplasmic localization of the kinase
- effect on SRPK1 nuclear accumulation in 5-FU-treated cells ([9]; co-treatment with 5-FU): prevented the nuclear accumulation of SRPK1
